Test results from paper PMC6338644 (The FASEB Journal, 2018).
Counter-ions that a name gives are not always drawn.

Test system: AMPK phosphorylation (pAMPK Thr172)
Settings: 20–24 h

| SMILES | increase in AMPK activity in podocytes (podocytes, 1 mM) [fold] | increase in AMPK phosphorylation (activity) (myotubes and podocytes, 2 mM) |
| --- | --- | --- |
| NC(=O)c1ncn([C@@H]2O[C@H](CO)[C@@H](O)[C@H]2O)c1N [AICAR, 5-aminoimidazole-4-carboxamide ribonucleoside] | 2 |  |
| CN(C)C(=N)N=C(N)N [Metformin, 1,1-Dimethylbiguanide hydrochloride] |  | 2- to 3 fold |
